Experimental data reported in US20240247031A1, “COMPOSITION FOR TREATING CANCER CONTAINING TELOMERASE-TARGETING GNRH ANTAGONIST-DERIVED PEPTIDE HS1002” (Research & Business Foundation Sungkyunkwan University, priority 2023, published 2024).

Columns and labels:
LNCaP = assay type: cell-based; details: human, 48 h
Procedure: (§1) To evaluate anticancer activities of the produced peptides on various types of cancer cells, MTT analysis was performed. Human prostate cancer cell lines (LNCaP, PC3, and DU145), human breast cancer cell lines (MDA-MB-231 and MCF-7), lung cancer cell line (A549), and ovarian cancer cell line (SKOV3) were cultured in RPMI media supplemented with 1% penicillin/streptomycin and 1% fetal bovine serum (all from Life Technologies, Grand Island, NY). The cells were seeded in 96-well plates containing 100 μL of growth media for 24 h. The media were removed, and then 100 μL of the peptide (solvent DPBS) at each concentration was added to each well and incubated at 37° C. for 48 h. After incubation for 48 h, 100 μL of MTT reagent was added to each well. The cells were incubated at 37° C. for 4 h, and then the supernatant was removed. Formazan crystals were dissolved in 100 μL of DMSO with gentle stirring at 37° C. for 10 min. The absorbance per well was measured at 540 nm using a VERSA max microplate reader (Molecular Devices Corp.).

MCF-7 = assay type: cell-based; details: human, 48 h
Procedure: as §1

A549 = test: MTT cytotoxicity on various cancer cells (Table 1); assay type: cell-based; details: human, 48 h
Procedure: as §1

DU145 = test: MTT cytotoxicity on various cancer cells (Table 1); assay type: cell-based; details: human, 48 h
Procedure: as §1

PC3 = test: MTT cytotoxicity on various cancer cells (Table 1); assay type: cell-based; details: human, 48 h
Procedure: as §1

SKOV3 = test: MTT cytotoxicity on various cancer cells (Table 1); assay type: cell-based; details: human, 48 h
Procedure: as §1

MC38 tumor = test: MC38 syngeneic mouse tumor model (FIG. 19); assay type: in vivo; details: 1 mg/kg s.c. every day
Procedure: All mice were purchased from Central Lab Animal Inc. ([…]). They were raised in a 12 h environmental light/dark cycle with controlled temperature (22±2° C.) conditions. The experimental protocol was approved by the Sungkyunkwan University Institutional Animal Care and Use Committee (SKKUIACUC2021-06-27-1, SKKUIACUC2023-01-07-1). For the establishment of tumors, LNCaP (1×10^7), MC38 (2×10^5), and 4T1 (1×10^6) suspended in serum-free media containing 50% Matrigel was subcutaneously administered in the right flank of mice, respectively. The tumor volumes (V) were calculated using a caliper and the standard equation: V (mm^3)=0.52 (ab^2) (a=length, b=width). Once the tumor reached 100-200 mm^3, the mice were randomly divided into different groups and subcutaneously injected with a vehicle or each peptide every day.
The sequences of the TERT peptide are highly conserved in human and mouse, indicating its potential translatability to mouse cancer. […] Hot tumors are generally more responsive to immunotherapy. In contrast, ‘Cold’ tumors such as the 4T1 tumor model lack infiltrating T cells and often have a low tumor mutational burden. Without a pre-existing adaptive immune response, cold tumors are insensitive to immunotherapy. […]

CC[C@H](C)[C@H](NC(=O)[C@H](Cc1ccccc1)NC(=O)[C@H](CCCNC(=N)N)NC(=O)[C@H](CC(C)C)NC(=O)[C@H](CCCNC(=N)N)NC(=O)[C@H](CO)NC(=O)[C@@H](NC(=O)[C@H](CC(C)C)NC(=O)[C@H](CC(C)C)NC(=O)[C@H](C)NC(=O)[C@@H]1CCCN1C(=O)[C@H](CCCNC(=N)N)NC(=O)[C@H](C)NC(=O)[C@@H](N)CCC(=O)O)[C@@H](C)O)C(=O)N1CCC[C@H]1C(=O)N[C@@H](CCCCN)C(=O)O [GV1001, reference compound]
Cytotoxicity (IC50) LNCaP (LNCaP): 7.34 ± 0.31 µg/mL | Cytotoxicity (IC50) MCF-7 (MCF-7): 55.56 ± 2.18 µg/mL | Cytotoxicity (IC50) A549 (A549): 3.16 ± 0.30 µg/mL | Cytotoxicity (IC50) DU145 (DU145): 7.59 ± 0.46 µg/mL | Cytotoxicity (IC50) PC3 (PC3): 9.05 ± 0.62 µg/mL | Cytotoxicity (IC50) SKOV3 (SKOV3): 5.16 ± 0.62 µg/mL | tumor volume (MC38 tumor): diminished | tumor weight (MC38 tumor): diminished
